Legend:
[1] = cited from earlier work
[2] = RBC partitioning; type: in vitro ADME; conditions: rat blood, 1000 nM, 60 min

CC(C)NC[C@H](O)COc1cccc2ccccc12 (racemic) [propanolol]
blood-to-plasma ratio (KRBC/Plasma), reported in the literature [1]: 1.0 ± 0.2 | blood-to-plasma ratio (KRBC/Plasma) [2]: 0.90 ± 0.03

— article PMC7203973 (ACS Omega, 2020)
